Results as given in BindingDB's records for doi:10.1021/jm00003a020 (University of Washington, 1995).

Assay: Inhibitory concentration was determined against delta-opioid receptor using [3H]- DPDPE radioligand

Q: With Oc1ccc2c3c1O[C@H]1[C@@H](O)CC[C@@]4(O)[C@@H](C2)N(CC2CC2)CC[C@]314 [Naltrexone-6-alpha-ol] as the compound, how does the pIC50 read?
A: Its pIC50 is 7.49.

pIC50: −log10 of the molar value.
